Test results taken from patent publication US20240109898A1, “SUBSTITUTED PYRAZOLO[1,5-A]PYRIMIDINE-7-AMINE DERIVATIVES, COMPOSITIONS AND PHARMACEUTICAL USES THEREOF” (SHANGHAI HAIYAN PHARMACEUTICAL TECHNOLOGY CO., LTD., priority 2021, published 2024).

Chains of the proteins cited; added tags and fusions are not shown.
UniProt P50750, whole entry: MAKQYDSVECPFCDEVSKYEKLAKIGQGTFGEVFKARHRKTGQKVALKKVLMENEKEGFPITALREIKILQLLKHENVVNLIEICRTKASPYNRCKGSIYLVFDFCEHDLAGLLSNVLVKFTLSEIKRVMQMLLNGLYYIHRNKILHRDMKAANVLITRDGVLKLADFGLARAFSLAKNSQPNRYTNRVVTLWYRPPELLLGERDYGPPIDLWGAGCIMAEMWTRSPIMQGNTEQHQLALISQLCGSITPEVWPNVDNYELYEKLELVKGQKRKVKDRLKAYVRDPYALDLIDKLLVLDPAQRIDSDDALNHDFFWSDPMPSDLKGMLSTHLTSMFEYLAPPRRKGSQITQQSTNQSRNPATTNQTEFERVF
UniProt P06493, whole entry: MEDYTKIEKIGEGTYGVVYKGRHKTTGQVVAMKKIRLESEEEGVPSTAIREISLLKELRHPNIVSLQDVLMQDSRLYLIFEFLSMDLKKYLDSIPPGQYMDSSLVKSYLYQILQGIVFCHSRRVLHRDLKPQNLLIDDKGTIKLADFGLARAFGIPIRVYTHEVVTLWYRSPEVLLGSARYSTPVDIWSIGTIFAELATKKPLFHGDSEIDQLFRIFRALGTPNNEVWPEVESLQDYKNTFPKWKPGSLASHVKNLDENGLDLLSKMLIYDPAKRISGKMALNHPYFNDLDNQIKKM
UniProt O60563, whole entry partner: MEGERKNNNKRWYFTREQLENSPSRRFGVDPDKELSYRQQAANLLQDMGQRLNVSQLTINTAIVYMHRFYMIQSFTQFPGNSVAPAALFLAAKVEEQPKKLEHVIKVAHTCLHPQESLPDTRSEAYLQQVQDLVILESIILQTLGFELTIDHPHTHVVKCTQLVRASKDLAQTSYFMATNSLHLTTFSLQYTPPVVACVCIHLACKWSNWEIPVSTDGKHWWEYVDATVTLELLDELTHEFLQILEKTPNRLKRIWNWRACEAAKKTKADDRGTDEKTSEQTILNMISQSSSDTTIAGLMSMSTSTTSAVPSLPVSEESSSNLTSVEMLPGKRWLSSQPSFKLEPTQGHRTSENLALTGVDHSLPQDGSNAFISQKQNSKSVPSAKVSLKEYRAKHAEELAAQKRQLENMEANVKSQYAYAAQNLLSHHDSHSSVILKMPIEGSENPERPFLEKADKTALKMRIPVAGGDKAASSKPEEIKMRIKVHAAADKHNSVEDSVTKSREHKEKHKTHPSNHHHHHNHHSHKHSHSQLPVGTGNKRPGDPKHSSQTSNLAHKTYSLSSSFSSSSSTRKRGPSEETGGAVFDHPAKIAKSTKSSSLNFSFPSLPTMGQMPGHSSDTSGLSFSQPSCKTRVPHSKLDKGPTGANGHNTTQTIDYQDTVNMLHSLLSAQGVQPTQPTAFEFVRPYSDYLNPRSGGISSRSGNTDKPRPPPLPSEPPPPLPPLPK
UniProt P14635, whole entry partner: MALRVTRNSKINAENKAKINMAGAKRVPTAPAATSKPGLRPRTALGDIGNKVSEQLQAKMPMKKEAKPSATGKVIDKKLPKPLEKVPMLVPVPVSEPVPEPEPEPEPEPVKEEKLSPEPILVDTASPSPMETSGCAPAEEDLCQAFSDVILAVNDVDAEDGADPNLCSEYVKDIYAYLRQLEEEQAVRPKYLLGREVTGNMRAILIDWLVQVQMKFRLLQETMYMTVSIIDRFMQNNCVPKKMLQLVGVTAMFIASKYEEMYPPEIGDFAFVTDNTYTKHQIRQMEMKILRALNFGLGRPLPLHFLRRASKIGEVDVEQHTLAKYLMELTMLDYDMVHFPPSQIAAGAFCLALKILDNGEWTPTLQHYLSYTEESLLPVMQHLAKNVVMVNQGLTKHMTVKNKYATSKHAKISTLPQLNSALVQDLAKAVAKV

How the values were obtained:
[1] = biological target: CDK9/CycT (Homo sapiens (Human), UniProt P50750); assay: LANCE Ultra kinase activity inhibition assay, CDK9/CycT; conditions: read-out: CDK9 (IC50/μM), ATP 10 μM, highest compound concentration 1 μM
[2] = biological target: CDK1/CycB (Homo sapiens (Human), UniProt P06493); assay: LANCE Ultra kinase activity inhibition assay, CDK1/CycB; assay type: biochemical; conditions: read-out: CDK1 (IC50/μM), ATP 4 μM, highest compound concentration 10 μM
[3] = biological target: CDK2/CycA (Homo sapiens (Human), UniProt P24941); assay: LANCE Ultra kinase activity inhibition assay, CDK2/CycA; assay type: biochemical; conditions: read-out: CDK2 (IC50/μM), ATP 10 μM, highest compound concentration 10 μM

Compound	IC50 [1]	IC50 [2]	IC50 [3]
CC(=N)N[C@H]1CC[C@H](Nc2cc([C@@H](C)C3CC3)nc3c(Cl)cnn23)C1	0.011 µM	2.09 µM	1.23 µM
CC(=N)N[C@H]1CC[C@H](Nc2cc(C(C3CC3)C3CC3)nc3c(C)cnn23)C1	0.034 µM	> 10 µM	> 10 µM
